{"source": "ChEMBL document CHEMBL1121560", "about": "“Synthesis and biological activity of 5-fluoro-2'-deoxyuridine 5'-phosphorodiamidates” (J Med Chem, 1980)", "key": {"[1]": {"assay": "Half-life for hydrolysis to 5-fluoro-2'-deoxyuridine-5'-phosphate at 100 degree Centigrade"}, "L5178Y": {"system": "L5178Y", "assay": "In vitro percent inhibition at 10 e-8 M against L5178Y cell growth after 72 hr (replicate flasks inoculated with 10 e5 cells were treated with the nucleotide)"}, "[2]": {"assay": "Half-life for hydrolysis to 5-fluoro-2'-deoxyuridine-5'-phosphate at 65 degree Centigrade"}}, "data": [{"smiles": "O=c1[nH]c(=O)n([C@H]2C[C@H](O)[C@@H](COP(=O)(n3ccnc3)n3ccnc3)O2)cc1F", "values": [{"measurement": "T1/2", "setting": "[1]", "value": 12, "unit": "h"}, {"measurement": "Inhibition", "setting": "L5178Y", "value": 16, "unit": "%"}, {"measurement": "T1/2", "setting": "[2]", "value": 60, "unit": "h"}]}]}
